Biological target: T1, serotonin transporter (Rattus norvegicus, UniProt P31652)
T1 construct: frontal cortical membranes prepared from male Sprague-Dawley rats; from tissue; host or cells: frontal cortex membranes, male Sprague-Dawley rats
Test: affinity for the serotonin transporter ([3H]-paroxetine binding, rat frontal cortical membranes)
Parameters: species or system rat (male Sprague-Dawley)
Details: [3H]-paroxetine 0.1 nM, 60 min, 25° C; Ki converted from IC50 (Cheng and Prusoff); read-out: ST (Ki)

The chains behind the UniProt entries cited, without tags or fusion partners.
UniProt P31652, whole entry: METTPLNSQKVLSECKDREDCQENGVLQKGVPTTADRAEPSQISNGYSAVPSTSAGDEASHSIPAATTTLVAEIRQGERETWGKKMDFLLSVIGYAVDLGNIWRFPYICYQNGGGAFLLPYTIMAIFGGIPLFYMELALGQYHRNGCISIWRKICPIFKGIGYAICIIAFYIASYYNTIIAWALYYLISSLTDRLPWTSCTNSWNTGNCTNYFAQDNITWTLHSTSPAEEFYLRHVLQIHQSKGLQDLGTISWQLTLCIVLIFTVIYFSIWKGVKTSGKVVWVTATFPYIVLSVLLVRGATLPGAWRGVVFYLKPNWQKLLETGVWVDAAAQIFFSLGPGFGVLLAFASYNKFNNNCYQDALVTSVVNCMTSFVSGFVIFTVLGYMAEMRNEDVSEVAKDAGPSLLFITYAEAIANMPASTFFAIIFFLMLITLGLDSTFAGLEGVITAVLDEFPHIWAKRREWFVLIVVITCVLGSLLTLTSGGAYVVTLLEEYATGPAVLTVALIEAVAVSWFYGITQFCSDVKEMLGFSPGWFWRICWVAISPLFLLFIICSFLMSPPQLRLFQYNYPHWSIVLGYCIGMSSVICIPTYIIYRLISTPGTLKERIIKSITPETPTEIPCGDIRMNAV

“[2-(5-Fluoro-1H-indol-3-yl)ethyl]-[2-(5-fluoro-2-methoxy-phenoxy)-ethyl]-amine [Example 4]” was tested, and the Ki was 28 nM.
